## Binding of CDR-mutated scFvs to a peptide of the spike HR2 region

Binding partner: SARS-CoV-2 spike HR2 peptide, sequence PDVDLGDISGINAS.

Parent scFv Ab-14: VH joined to VL by three GGGGS repeats. Changes lie in the light chain CDRs alone.
VH: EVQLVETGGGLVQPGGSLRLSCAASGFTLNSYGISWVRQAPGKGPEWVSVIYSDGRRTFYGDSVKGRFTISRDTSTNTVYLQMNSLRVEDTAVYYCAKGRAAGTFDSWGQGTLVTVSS
VL: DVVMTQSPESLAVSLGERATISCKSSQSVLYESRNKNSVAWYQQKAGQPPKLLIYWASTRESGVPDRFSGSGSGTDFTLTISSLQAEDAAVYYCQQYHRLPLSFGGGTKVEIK

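Phage display of a naive human antibody library on the peptide gave the parent. This is the validation round: designs drawn from the data on random variants, tested in the same kind of assay. Their group label is 14L_Ctrl (Ctrl: baseline library sampled from a position-specific scoring matrix, with some repeated check sequences). The scFvs were displayed on barcoded MATa yeast, the peptide on MATalpha yeast. Binding brings cells together so that they mate, and sequencing counts the barcode pairs among the diploids. Scores were corrected for input abundance and mapped to Kd with protein pairs of known affinity run in the same pool. The assay was run in six technical replicates.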

Variants are written as CDR1, CDR2 and CDR3 of the light chain (limits as in the source). Parent: KSSQSVLYESRNKNSVA, WASTRES, QQYHRLPLS. Numbers give log10(Kd / nM), so 0 is 1 nM and 3 is 1 µM. Smaller is tighter. Averages over replicates are reported, and they cover detected replicates only. A pair that was not seen in that replicate is written "nd"; this usually means weak binding, but a binder can also be missed. Of ten entries with the parent sequence, four were seen in most replicates (averages 0.34 to 2.37), three in one and three in none, so single entries are noisy.

CDR-L1	CDR-L2	CDR-L3	replicates, log10 nM	log10 Kd (nM), mean	empty controls
MMSQSVLYEMRNKNSVA	KASTREY	QQYHRLPLS	1.18 / 1.14 / 1.14 / 0.43 / 1.84 / 1.09	1.14	1 of 18 (2.08)
KSSQQVLYESESKNSVA	HASTRES	QQYHRLPLS	0.87 / 2.02 / 1.82 / 0.79 / 1.17 / 1.81	1.41	0 of 18
KSSQSVWYESRQKNSVA	NASTRES	QQYHRMPLS	1.02 / 0.78 / 1.01 / 0.96 / 1.02 / 0.89	0.95	3 of 18 (2.92)
KLSQSVLDESRNKNSVA	WASTRES	QQYHRLILP	nd / nd / nd / nd / 1.78 / nd	1.78	0 of 18
KISFSVLDESSNKNSVA	WASTRES	QRYHRLPLS	nd / 2.03 / nd / nd / 1.85 / 2.41	2.10	1 of 18 (1.87)
KSAQSVLYESRNKNSVA	QASTRER	QQYHRLPLS	0.40 / 0.25 / 0.40 / 0.21 / 0.06 / 0.51	0.31	0 of 18
KSSQSVLYESTAVNSVA	DASTRES	QQYSRLPLS	0.90 / 1.01 / 1.02 / 0.91 / 0.50 / 1.37	0.95	3 of 18 (2.92)
KLSQSVLYESRNKFSVA	HASTRES	QQYHRLPLS	0.21 / 0.11 / -0.10 / 0.03 / 0.14 / 0.29	0.11	0 of 18
KSSNSVLYESRNKNSVA	WASTRES	QWYHRLPLS	nd / nd / nd / nd / nd / nd	nd	0 of 18
KSSQGVLQESRNKNGVA	WASKRES	QQYHRLPLS	2.36 / 2.91 / nd / nd / 2.83 / 2.05	2.54	2 of 18 (3.21)
KSSQSVLYESENKNSVA	WASTRES	QQYHRLPLS	1.22 / 0.59 / 0.75 / 1.74 / 1.63 / 1.53	1.24	4 of 18 (1.95)
RSSDYVGYESRNKNSVA	MASTRES	QQYHRLPLS	0.28 / 0.44 / 0.72 / 0.29 / 0.75 / 0.83	0.55	2 of 18 (1.80)
KSSQSVLYESRNKNSVA	GASTRES	QQYGRLPLS	0.32 / 0.25 / 0.67 / 0.03 / 0.27 / 0.56	0.35	1 of 18 (2.34)
KVSQSVLYEFRNKNSVA	EASTRES	QQYHRLPLS	0.04 / 0.10 / -0.04 / -0.21 / -0.03 / 0.17	0.00	0 of 18
KSSQSVLYESFNKNSVA	AASTRES	QQYHRLPLS	1.15 / 1.02 / 0.24 / 0.74 / 0.93 / 1.43	0.92	0 of 18
KSSQSVLYESRNKNSVA	HAWTREM	QQYHRLPLS	nd / 1.71 / 1.84 / 1.59 / 1.86 / 1.91	1.78	1 of 18 (2.17)
KSSDSVLYESHNKNSVA	WANTRES	QQYHRLPVS	nd / nd / nd / nd / nd / 2.21	2.21	1 of 18 (2.18)
MMSFSVLYESRNQNSVA	AASTRES	QQYHRLPLS	1.20 / 1.06 / 0.85 / 1.11 / 0.69 / 0.87	0.96	1 of 18 (3.30)
KSSQSVLYERRNKNSVA	WASTRES	GQYHRLPLS	nd / nd / nd / nd / nd / nd	nd	0 of 18
KSSQSVSMESRNKNSVA	WASTRES	QQYHRLPLS	1.63 / 2.18 / 2.45 / 1.96 / 1.02 / 1.52	1.80	0 of 18
KSSQSVLYESRNENSVA	DASTRES	QSYNRLPLS	1.02 / 1.16 / 0.97 / 0.94 / 1.26 / 1.28	1.11	1 of 18 (2.76)
KSSQSVLYESRYKNSVA	WASTRES	QQYHRLPLG	nd / 2.04 / nd / nd / nd / nd	2.04	0 of 18
KSSQSVLYESDNKNSVA	WASTRES	QQYHRLPLI	nd / nd / nd / nd / nd / nd	nd	0 of 18
KSSQPVLYESRNLNAVA	WASTRES	QQYHRLPLR	nd / nd / nd / nd / nd / nd	nd	1 of 18 (2.84)
KSSQSVLYETSNKNSVA	WASTRES	QQYHRLPLS	1.88 / 1.66 / 1.50 / 2.10 / 1.66 / 2.33	1.85	1 of 18 (1.94)
KSSQSTLYESENKNSVA	WASTRES	QQYHRLPLS	1.19 / nd / 1.38 / 1.22 / 1.71 / 1.49	1.40	0 of 18
KSSSSVLYEDENKNSVA	NASTRES	QQYHRLPLS	1.50 / 1.00 / 0.58 / 0.82 / 0.61 / 0.95	0.91	0 of 18
KSSQSVLYESRCKNSVA	WASTRES	QQYLRLPLS	nd / nd / nd / nd / nd / nd	nd	0 of 18
KSSQSVLYEARNKNSVA	WASTRES	QQYHTMPLS	nd / nd / nd / nd / 2.34 / nd	2.34	0 of 18
KSSQSTLYESANKNSVA	WGSTRES	QQYHRLPLS	0.75 / 0.88 / 0.37 / 1.14 / 1.34 / 0.69	0.86	1 of 18 (2.31)
KSSQSVLYESRNKNSVA	WASTVES	QQYIRLPLS	nd / nd / nd / nd / nd / nd	nd	0 of 18
KSSQSVLYESENKNSVA	EASTRES	QQYQRLPLS	nd / nd / 0.54 / 0.58 / 1.23 / 1.31	0.92	0 of 18
KRSQSPLYESRNKNSVA	FASTREM	QQCHRLPLS	nd / nd / nd / nd / nd / nd	nd	0 of 18
KSSQSDLYESRNKNSVA	WASTREE	QQYQRLPLS	1.31 / 1.76 / 1.83 / 1.71 / 1.54 / 1.71	1.64	0 of 18
KSSQSVLYESRNKNSVA	WSSTLES	QQYHRLPLS	nd / nd / nd / nd / 1.41 / nd	1.41	0 of 18

Excerpt, the first 4 entries:

{"CDR-L1": "MMSQSVLYEMRNKNSVA", "CDR-L2": "KASTREY", "CDR-L3": "QQYHRLPLS", "replicates, log10 nM": "1.18 / 1.14 / 1.14 / 0.43 / 1.84 / 1.09", "log10 Kd (nM), mean": "1.14", "empty controls": "1 of 18 (2.08)"}
{"CDR-L1": "KSSQQVLYESESKNSVA", "CDR-L2": "HASTRES", "CDR-L3": "QQYHRLPLS", "replicates, log10 nM": "0.87 / 2.02 / 1.82 / 0.79 / 1.17 / 1.81", "log10 Kd (nM), mean": "1.41", "empty controls": "0 of 18"}
{"CDR-L1": "KSSQSVWYESRQKNSVA", "CDR-L2": "NASTRES", "CDR-L3": "QQYHRMPLS", "replicates, log10 nM": "1.02 / 0.78 / 1.01 / 0.96 / 1.02 / 0.89", "log10 Kd (nM), mean": "0.95", "empty controls": "3 of 18 (2.92)"}
{"CDR-L1": "KLSQSVLDESRNKNSVA", "CDR-L2": "WASTRES", "CDR-L3": "QQYHRLILP", "replicates, log10 nM": "nd / nd / nd / nd / 1.78 / nd", "log10 Kd (nM), mean": "1.78", "empty controls": "0 of 18"}

A sequence measured in both rounds can read differently, since the two assays cover different ranges. In the paper, a design with two or fewer of six values counts as a poor binder. As a blank, each scFv also met three strains without target: over all light chain designs, 4% of these pairings were detected, typically at 2.64 and seldom below 1.59. For each scFv, signals with the empty controls are counted beside the result, with their mean in brackets.

Values reported by Li et al. 2023, doi:10.1038/s41467-023-39022-2 (FLAb copy).